According to PubChem BioAssay AID504490 (NMMLSC, 2011):
Only a part is listed here, and it is no random draw. Some tests of the compounds listed are not included; inactive here does not mean inactive elsewhere. Calls of active or inactive are those of the source.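 Rule for the calls: active = inhibition above a set limit, near 3 SD of compounds lacking own fluorescence (cut at about 54% in these data); inactive = the rest.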

What follows are compounds tested on beta-arrestin 1 C-terminal peptide binding to AP2 beta2-adaptin appendage (human) (assay: inhibitors of beta-arrestin/AP2 binding, primary screen, biochemical, GPCR trafficking, flow cytometry (AID 504490;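 note: plate controls were DMSO wells for no effect and 5 µM unlabelled arrestin peptide for full effect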)). Settings: FITC-arrestin peptide / GST-AP2 beads, at 10 µM, active compounds read high, AP2 beta2 appendage carries R879A mutation.

SMILES | inhibition
Cc1ccccc1C(=O)NCC1(N2CCCCC2)CCCCC1 | inactive: -2.78%
CN(C)C1CCCC1OC(=O)C(O)(c1ccccc1)c1ccccc1 (stereo not given) | inactive: 4.56%
CN(C)c1ccc(C(=O)NCC2(N(C)C)CCCCC2)cc1 | inactive: 26.6%
C=CCN1CCN(CCOC(=O)C(O)(c2ccccc2)c2ccccc2)CC1 | inactive: -7.46%
O=C(NCC1(N2CCCCC2)CCCCC1)c1cc(F)c(F)cc1Cl | inactive: -7.76%
Cc1cc(C(=O)NCC2(N3CCCCC3)CCCCC2)ccc1[N+](=O)[O-] | inactive: -8.54%
CCN1CCCC(OC(=O)C2(O)c3ccccc3C=Cc3ccccc32)C1 (stereo not given) | inactive: -4.2%
O=C(NCC1(N2CCCCC2)CCCCC1)c1cccc(Br)c1 | inactive: 12.8%
COc1ccc(C(=O)NCC2(N(C)C)CCCCC2)cc1 | inactive: -6.4%
O=C(NCC1(N2CCCCC2)CCCCC1)c1cc([N+](=O)[O-])ccc1Cl | inactive: -11.1%
CN1[C@@H]2CC[C@H]1CC(OC(=O)C(O)(c1ccccc1)c1ccccc1)C2 (stereo not given in full) | inactive: -2.4%
CC(C)N1C(=O)CC2(CCN(CCOC(=O)C(O)(c3ccccc3)c3ccccc3)CC2)C1=O | inactive: -8.49%
CCN(CC)CC(C)C(C)OC(=O)C(O)(c1ccccc1)c1ccccc1 (stereo not given) | inactive: 24.5%
COc1cc(SC)ccc1C(=O)NCC1(N(C)C)CCCCC1 | inactive: 25.9%
Cc1ccc(C(=O)NCC2(N3CCCCC3)CCCCC2)cc1 | inactive: -5.84%
O=C(OC1CN2CCC1CC2)C(CO)(c1ccccc1)c1ccccc1 (stereo not given) | inactive: -123%
COc1ccc(Br)c(C(=O)NCC2(N3CCCCC3)CCCCC2)c1 | inactive: 13%
CN(C)c1cccc(C(=O)NCC2(N(C)C)CCCCC2)c1 | inactive: 17.4%
CC(C)Oc1ccc(C(=O)NCC2(N(C)C)CCCCC2)cc1 | inactive: 33.1%
O=C(OCCN1CCCC1)C(O)(c1ccccc1)c1ccccc1 | inactive: 9.83%
CN(C)C1(CNC(=O)c2ccc(Br)cc2)CCCCC1 | inactive: -2.4%
COc1cc(C(=O)NCC2(N(C)C)CCCCC2)c([N+](=O)[O-])cc1OC | inactive: -7.99%
COc1cccc(C(=O)NCC2(N3CCCCC3)CCCCC2)c1 | inactive: -14.1%
COc1ccc(Cl)cc1C(=O)NCC1(N(C)C)CCCCC1 | inactive: 6.28%
O=C(NCC1(N2CCCCC2)CCCCC1)c1cccc(Cl)c1 | inactive: 10.8%
